From PubChem BioAssay AID651582 (Sanford-Burnham Center for Chemical Genomics, 2012)
The entries are a selection whose mix differs from that of the whole data set. The source made the active and inactive calls.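 Rule for the calls: active = pattern-corrected inhibition of lipid staining of at least 50% with the nuclear-stain viability signal not falling by more than 50%; inactive = the rest, inconclusive results apart.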

experiment: TAG lipid buildup reduction in H9c2 cells – cell-based, uHTS, fluorescence, primary screen (AID 651582); conditions: Nile Red lipid (TAG) fluorescence, at 12.5 µM, active compounds read high, cells loaded with 200 µM oleic acid;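 note: 0% = DMSO wells and 100% = triacsin C control wells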

Structure (SMILES)	inhibition
O=P(Nc1ccccn1)(c1ccc(Br)cc1)c1ccc(Br)cc1	inactive: -13.5%
